Test system: CHI3L1 phosphorylation

CN1CC[C@H](c2c(O)cc(O)c3c(=O)cc(-c4ccccc4Cl)oc23)[C@H](O)C1 [Flavopiridol]
degree of phosphorylation changes (comparison of CDK inhibitors): most prominent changes | serine phosphorylation of CHI3L1: blocked

— patent publication US20230312752A1 (Brown University, priority 2021, published 2023)
